Amino acid sequences for entries named in this document (tags omitted). A change or cut given only in a name is not applied to a line headed by its entry. Residues count along the entry.
UniProt P51955, 1-271 limits assumed: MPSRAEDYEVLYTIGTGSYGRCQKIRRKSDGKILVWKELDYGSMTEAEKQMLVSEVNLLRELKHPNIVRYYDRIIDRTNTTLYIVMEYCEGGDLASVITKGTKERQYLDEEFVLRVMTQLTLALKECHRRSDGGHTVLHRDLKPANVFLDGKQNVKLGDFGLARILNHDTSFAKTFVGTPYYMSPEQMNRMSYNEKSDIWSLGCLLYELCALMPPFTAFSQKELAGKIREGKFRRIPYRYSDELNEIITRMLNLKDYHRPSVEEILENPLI
UniProt P34947, whole entry, looked up: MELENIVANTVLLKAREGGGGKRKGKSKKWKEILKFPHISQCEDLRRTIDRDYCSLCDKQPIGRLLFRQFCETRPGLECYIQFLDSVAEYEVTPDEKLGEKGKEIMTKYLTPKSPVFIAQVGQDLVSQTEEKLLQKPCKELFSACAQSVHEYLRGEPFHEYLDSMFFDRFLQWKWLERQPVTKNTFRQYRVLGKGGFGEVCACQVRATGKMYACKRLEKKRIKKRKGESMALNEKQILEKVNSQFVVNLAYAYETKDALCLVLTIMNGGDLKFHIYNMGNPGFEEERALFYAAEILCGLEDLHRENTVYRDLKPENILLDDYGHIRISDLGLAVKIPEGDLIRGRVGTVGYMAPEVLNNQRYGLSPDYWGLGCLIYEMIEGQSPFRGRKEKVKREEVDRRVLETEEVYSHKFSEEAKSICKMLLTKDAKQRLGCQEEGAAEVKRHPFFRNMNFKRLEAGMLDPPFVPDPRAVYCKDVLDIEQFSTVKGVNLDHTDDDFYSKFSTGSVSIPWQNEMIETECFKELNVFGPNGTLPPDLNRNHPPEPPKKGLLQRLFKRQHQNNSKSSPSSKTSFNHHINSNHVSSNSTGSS
UniProt P68400, 39-324 limits assumed: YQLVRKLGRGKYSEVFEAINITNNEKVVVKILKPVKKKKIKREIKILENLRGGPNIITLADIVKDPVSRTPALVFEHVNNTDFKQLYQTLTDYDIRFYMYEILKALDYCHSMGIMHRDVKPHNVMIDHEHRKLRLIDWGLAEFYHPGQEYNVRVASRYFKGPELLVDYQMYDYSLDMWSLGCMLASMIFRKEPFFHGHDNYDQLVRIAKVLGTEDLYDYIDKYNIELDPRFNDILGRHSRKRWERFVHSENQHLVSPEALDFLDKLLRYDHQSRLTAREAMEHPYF
UniProt O14936, 12-276 limits assumed: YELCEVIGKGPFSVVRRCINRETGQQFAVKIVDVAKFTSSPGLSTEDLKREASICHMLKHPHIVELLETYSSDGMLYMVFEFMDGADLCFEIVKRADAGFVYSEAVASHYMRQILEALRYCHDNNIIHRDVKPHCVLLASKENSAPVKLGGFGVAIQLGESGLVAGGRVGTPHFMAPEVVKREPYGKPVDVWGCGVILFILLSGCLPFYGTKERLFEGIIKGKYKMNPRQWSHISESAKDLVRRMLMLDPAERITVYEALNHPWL
UniProt Q96GD4, 77-327 limits assumed: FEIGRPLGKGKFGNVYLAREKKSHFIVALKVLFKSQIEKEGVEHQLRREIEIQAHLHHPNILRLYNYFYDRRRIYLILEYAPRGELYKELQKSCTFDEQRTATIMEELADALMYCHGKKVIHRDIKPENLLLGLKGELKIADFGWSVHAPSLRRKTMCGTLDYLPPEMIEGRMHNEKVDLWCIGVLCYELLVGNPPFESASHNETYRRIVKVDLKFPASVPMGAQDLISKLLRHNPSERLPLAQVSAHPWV
UniProt Q96SB4, 80-653 limits assumed: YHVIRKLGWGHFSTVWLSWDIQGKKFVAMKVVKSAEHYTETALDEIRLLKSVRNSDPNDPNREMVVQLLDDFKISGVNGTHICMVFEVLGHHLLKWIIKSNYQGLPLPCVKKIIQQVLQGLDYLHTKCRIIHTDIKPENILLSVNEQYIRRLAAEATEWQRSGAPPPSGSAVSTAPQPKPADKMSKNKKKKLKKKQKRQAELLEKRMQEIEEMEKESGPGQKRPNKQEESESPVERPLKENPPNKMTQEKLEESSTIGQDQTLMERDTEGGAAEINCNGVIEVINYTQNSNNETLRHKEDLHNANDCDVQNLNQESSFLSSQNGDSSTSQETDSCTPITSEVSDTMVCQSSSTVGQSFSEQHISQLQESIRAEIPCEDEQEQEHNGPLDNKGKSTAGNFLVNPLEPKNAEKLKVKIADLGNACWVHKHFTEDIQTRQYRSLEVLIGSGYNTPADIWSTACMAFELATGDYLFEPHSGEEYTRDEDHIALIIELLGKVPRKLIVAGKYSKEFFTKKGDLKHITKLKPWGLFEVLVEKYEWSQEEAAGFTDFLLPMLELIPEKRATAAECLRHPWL
UniProt P11309, whole entry, looked up: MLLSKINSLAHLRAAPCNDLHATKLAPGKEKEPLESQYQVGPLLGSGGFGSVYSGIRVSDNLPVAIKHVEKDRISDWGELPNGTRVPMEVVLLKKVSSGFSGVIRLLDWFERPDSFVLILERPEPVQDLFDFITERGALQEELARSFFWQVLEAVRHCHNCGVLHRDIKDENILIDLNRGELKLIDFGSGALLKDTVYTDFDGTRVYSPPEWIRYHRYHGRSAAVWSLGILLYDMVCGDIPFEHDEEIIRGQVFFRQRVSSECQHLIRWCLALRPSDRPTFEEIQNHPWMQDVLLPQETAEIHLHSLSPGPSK
UniProt Q9H4A3, 206-483 limits assumed: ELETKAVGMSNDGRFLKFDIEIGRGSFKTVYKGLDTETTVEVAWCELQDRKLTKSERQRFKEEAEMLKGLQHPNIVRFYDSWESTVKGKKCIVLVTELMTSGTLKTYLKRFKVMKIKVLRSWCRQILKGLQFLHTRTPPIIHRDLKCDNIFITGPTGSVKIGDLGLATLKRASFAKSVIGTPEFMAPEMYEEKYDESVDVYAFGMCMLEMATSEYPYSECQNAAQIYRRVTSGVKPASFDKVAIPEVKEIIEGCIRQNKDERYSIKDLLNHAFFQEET
UniProt Q8IU85: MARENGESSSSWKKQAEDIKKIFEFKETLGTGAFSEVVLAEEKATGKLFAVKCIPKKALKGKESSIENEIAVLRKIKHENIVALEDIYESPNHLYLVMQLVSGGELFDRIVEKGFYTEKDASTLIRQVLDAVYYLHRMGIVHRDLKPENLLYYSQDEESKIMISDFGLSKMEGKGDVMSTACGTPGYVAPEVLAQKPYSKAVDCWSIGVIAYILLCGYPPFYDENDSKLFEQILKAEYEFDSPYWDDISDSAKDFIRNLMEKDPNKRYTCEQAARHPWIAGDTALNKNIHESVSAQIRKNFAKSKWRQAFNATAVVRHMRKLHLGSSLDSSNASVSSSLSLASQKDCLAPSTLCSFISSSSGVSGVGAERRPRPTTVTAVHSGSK
UniProt Q92630, 222-535 limits assumed: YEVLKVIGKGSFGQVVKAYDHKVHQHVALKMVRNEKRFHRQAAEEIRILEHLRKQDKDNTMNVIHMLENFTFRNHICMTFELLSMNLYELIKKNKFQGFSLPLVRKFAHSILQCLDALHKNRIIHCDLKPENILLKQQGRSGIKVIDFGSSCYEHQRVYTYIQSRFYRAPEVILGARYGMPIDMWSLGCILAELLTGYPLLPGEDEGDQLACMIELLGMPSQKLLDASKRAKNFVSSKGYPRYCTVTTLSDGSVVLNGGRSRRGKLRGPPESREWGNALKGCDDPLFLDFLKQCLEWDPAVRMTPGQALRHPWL
UniProt P54762, 619-882 limits assumed: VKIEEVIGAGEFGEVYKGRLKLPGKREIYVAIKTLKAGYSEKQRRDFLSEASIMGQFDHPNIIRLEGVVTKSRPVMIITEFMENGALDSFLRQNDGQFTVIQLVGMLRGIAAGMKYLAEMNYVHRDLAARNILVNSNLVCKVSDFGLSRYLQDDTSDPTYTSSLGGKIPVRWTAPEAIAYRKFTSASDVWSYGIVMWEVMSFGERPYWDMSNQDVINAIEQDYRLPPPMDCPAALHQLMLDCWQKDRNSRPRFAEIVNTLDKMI
UniProt Q9UEE5, 61-321 limits assumed: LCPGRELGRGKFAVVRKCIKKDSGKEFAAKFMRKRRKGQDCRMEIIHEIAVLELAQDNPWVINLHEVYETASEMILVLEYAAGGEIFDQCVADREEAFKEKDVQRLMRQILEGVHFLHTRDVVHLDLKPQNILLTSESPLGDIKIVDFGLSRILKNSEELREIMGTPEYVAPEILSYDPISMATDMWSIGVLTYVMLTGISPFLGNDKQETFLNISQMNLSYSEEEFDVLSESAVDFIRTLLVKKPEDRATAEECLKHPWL
UniProt O43293, 13-275 limits assumed: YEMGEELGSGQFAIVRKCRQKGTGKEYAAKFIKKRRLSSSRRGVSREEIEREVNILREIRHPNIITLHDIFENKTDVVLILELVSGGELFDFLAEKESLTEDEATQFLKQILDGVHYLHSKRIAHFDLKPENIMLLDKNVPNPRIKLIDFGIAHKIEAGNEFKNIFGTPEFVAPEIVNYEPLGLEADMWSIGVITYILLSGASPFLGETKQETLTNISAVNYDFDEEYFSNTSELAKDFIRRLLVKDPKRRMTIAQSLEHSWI
UniProt Q14680, 1-340 limits assumed: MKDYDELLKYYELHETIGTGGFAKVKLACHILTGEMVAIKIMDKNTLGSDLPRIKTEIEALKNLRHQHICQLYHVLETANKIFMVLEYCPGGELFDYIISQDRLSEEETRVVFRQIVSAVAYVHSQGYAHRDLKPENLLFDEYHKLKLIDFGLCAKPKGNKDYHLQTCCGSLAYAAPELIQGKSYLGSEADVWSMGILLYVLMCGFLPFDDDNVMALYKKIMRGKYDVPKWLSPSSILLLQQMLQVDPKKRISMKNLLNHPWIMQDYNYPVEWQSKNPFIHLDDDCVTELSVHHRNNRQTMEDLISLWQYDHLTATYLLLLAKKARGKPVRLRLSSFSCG
UniProt O94804, 18-317 limits assumed: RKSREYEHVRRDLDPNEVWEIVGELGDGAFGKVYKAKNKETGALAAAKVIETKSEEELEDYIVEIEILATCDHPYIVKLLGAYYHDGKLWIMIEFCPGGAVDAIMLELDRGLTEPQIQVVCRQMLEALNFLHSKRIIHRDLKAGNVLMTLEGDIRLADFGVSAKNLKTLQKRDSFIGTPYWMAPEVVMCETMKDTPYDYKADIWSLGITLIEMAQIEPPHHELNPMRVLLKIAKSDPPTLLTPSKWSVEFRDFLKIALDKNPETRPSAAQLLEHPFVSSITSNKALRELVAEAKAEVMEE
UniProt Q13873, 203-504 limits assumed: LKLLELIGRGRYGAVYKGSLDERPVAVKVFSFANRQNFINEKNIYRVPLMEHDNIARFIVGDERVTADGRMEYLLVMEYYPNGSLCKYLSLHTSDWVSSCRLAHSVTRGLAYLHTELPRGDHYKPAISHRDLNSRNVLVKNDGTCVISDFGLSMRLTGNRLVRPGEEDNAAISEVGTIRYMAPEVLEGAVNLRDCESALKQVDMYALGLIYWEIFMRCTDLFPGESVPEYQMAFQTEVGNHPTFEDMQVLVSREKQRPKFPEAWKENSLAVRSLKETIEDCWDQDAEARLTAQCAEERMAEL
UniProt Q96PY6, 1-328 limits assumed: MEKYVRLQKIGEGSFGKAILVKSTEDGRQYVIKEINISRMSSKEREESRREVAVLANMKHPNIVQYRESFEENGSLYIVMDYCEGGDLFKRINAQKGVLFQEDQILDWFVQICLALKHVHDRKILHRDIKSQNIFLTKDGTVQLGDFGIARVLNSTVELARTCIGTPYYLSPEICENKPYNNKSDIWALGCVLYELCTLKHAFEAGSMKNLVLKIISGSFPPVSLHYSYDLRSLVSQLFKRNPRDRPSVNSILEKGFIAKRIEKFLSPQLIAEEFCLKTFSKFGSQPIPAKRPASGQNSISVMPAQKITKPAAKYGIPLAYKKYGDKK
UniProt Q96NX5, 23-277 limits assumed: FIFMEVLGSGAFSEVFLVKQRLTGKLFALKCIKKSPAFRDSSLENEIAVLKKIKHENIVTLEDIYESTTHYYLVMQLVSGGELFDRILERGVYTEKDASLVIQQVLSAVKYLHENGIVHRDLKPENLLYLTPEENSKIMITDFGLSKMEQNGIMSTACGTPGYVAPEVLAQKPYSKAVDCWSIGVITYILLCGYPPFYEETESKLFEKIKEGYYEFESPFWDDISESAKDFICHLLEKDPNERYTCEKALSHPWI
UniProt Q9NSY1, 38-345 limits assumed: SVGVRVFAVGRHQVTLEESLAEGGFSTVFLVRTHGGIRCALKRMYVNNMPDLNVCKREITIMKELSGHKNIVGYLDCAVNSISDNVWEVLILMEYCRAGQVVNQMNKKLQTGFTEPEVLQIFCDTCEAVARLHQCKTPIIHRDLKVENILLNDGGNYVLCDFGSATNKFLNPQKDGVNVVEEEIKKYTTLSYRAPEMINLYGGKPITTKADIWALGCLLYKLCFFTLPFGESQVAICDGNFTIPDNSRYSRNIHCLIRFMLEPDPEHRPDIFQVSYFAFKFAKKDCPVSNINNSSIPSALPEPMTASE

In article PMC12678819, “Targeting bacterial kinases as a strategy to counteract antibiotic resistance” (2025):

Legend:
[1] = Plasma stability assay, mouse; settings: 1 μg∙mL-1
NEK2 = NEK2 (Homo sapiens, UniProt P51955); assay: DSF kinase panel; settings: 10 μM
HIPK2 = HIPK2 (Homo sapiens, UniProt Q9H2X6); assay: DSF kinase panel; settings: 10 μM
GPRK5 = GPRK5 (Homo sapiens, UniProt P34947); assay: DSF kinase panel; settings: 10 μM
AAK1 = AAK1 (Homo sapiens, UniProt Q2M2I8); assay: DSF kinase panel; settings: 10 μM
MAPK15 = MAPK15 (Homo sapiens, UniProt Q8TD08); assay: DSF kinase panel; settings: 10 μM
CAMK2B = CAMK2B (Homo sapiens, UniProt Q13554); assay: DSF kinase panel; settings: 10 μM
CK2a1 = CK2a1 (Homo sapiens, UniProt P68400); assay: DSF kinase panel; settings: 10 μM
CASK = CASK (Homo sapiens, UniProt O14936); assay: DSF kinase panel; settings: 10 μM
CDKL1 = CDKL1 (Homo sapiens, UniProt Q00532); assay: DSF kinase panel; settings: 10 μM
MARK3 = MARK3 (Homo sapiens, UniProt P27448); assay: DSF kinase panel; settings: 10 μM
AURKB = AURKB (Homo sapiens, UniProt Q96GD4); assay: DSF kinase panel; settings: 10 μM
ABL1 = ABL1 (Homo sapiens, UniProt P00519); assay: DSF kinase panel; settings: 10 μM
DYRK1A = DYRK1A (Homo sapiens, UniProt Q13627); assay: DSF kinase panel; settings: 10 μM
SRPK1 = SRPK1 (Homo sapiens, UniProt Q96SB4); assay: DSF kinase panel; settings: 10 μM
CDK2 = CDK2 (Homo sapiens, UniProt P24941); assay: DSF kinase panel; settings: 10 μM
RSK1_b = RSK1_b (Homo sapiens, UniProt Q15418); assay: DSF kinase panel; settings: 10 μM
PIM1 = PIM1 (Homo sapiens, UniProt P11309); assay: DSF kinase panel; settings: 10 μM
WNK1 = WNK1 (Homo sapiens, UniProt Q9H4A3); assay: DSF kinase panel; settings: 10 μM
CSNK1E = CSNK1E (Homo sapiens, UniProt P49674); assay: DSF kinase panel; settings: 10 μM
CAMK1D = CAMK1D (Homo sapiens, UniProt Q8IU85); assay: DSF kinase panel; settings: 10 μM
SRC = SRC (Homo sapiens, UniProt P12931); assay: DSF kinase panel; settings: 10 μM
ULK3 = ULK3 (Homo sapiens, UniProt Q6PHR2); assay: DSF kinase panel; settings: 10 μM
PIM3 = PIM3 (Homo sapiens, UniProt Q86V86); assay: DSF kinase panel; settings: 10 μM
DYRK2 = DYRK2 (Homo sapiens, UniProt Q92630); assay: DSF kinase panel; settings: 10 μM
CLK1 = CLK1 (Homo sapiens, UniProt P49759); assay: DSF kinase panel; settings: 10 μM
EPHB1 = EPHB1 (Homo sapiens, UniProt P54762); assay: DSF kinase panel; settings: 10 μM
AurA = AurA (Homo sapiens, UniProt O14965); assay: DSF kinase panel; settings: 10 μM
TTK = TTK (Homo sapiens, UniProt P33981); assay: DSF kinase panel; settings: 10 μM
DRAK1 = DRAK1 (Homo sapiens, UniProt Q9UEE5); assay: DSF kinase panel; settings: 10 μM
DAPK3 = DAPK3 (Homo sapiens, UniProt O43293); assay: DSF kinase panel; settings: 10 μM
TLK1 = TLK1 (Homo sapiens, UniProt Q9UKI8); assay: DSF kinase panel; settings: 10 μM
MELK = MELK (Homo sapiens, UniProt Q14680); assay: DSF kinase panel; settings: 10 μM
FGFR1 = FGFR1 (Homo sapiens, UniProt P11362); assay: DSF kinase panel; settings: 10 μM
LOK = LOK (Homo sapiens, UniProt O94804); assay: DSF kinase panel; settings: 10 μM
MRCKa = MRCKa (Homo sapiens, UniProt Q5VT25); assay: DSF kinase panel; settings: 10 μM
BMPR2 = BMPR2 (Homo sapiens, UniProt Q13873); assay: DSF kinase panel; settings: 10 μM
NEK1 = NEK1 (Homo sapiens, UniProt Q96PY6); assay: DSF kinase panel; settings: 10 μM
VRK1 = VRK1 (Homo sapiens, UniProt Q99986); assay: DSF kinase panel; settings: 10 μM
CAMK1G = CAMK1G (Homo sapiens, UniProt Q96NX5); assay: DSF kinase panel; settings: 10 μM
BIKE = BIKE (Homo sapiens, UniProt Q9NSY1); assay: DSF kinase panel; settings: 10 μM
[2] = Plasma protein binding, mouse; settings: for PPB mouse, single replicate: maus, raw data of Table 3; for PPB mouse (%): mean
[3] = Metabolic stability assay, human microsomes

C[C@@H](CO)Cn1cc(-c2c(Cl)cnc3[nH]ccc23)nn1
t1/2 mouse plasma [1]: > 4 h | ΔTm NEK2 (NEK2): -3.3 °C | ΔTm HIPK2 (HIPK2): 1.9 °C | ΔTm GPRK5 (GPRK5): 1.5 °C | ΔTm AAK1 (AAK1): 5.4 °C | ΔTm MAPK15 (MAPK15): 4.5 °C | ΔTm CAMK2B (CAMK2B): 0.9 °C | ΔTm CK2a1 (CK2a1): 2.0 °C | ΔTm CASK (CASK): 0.1 °C | ΔTm CDKL1 (CDKL1): 0.2 °C | ΔTm MARK3 (MARK3): 2.1 °C | ΔTm AURKB (AURKB): 6.3 °C | ΔTm ABL1 (ABL1): 2.0 °C | ΔTm DYRK1A (DYRK1A): 1.6 °C | ΔTm SRPK1 (SRPK1): 0.3 °C | ΔTm CDK2 (CDK2): 1.5 °C | ΔTm RSK1_b (RSK1_b): 2.0 °C | ΔTm PIM1 (PIM1): 1.2 °C | ΔTm WNK1 (WNK1): -0.1 °C | ΔTm CSNK1E (CSNK1E): 3.1 °C | ΔTm CAMK1D (CAMK1D): 1.6 °C | ΔTm SRC (SRC): 0.2 °C | ΔTm ULK3 (ULK3): 7.1 °C | ΔTm PIM3 (PIM3): 1.2 °C | ΔTm DYRK2 (DYRK2): 3.2 °C | ΔTm CLK1 (CLK1): 5.3 °C | ΔTm EPHB1 (EPHB1): 0.4 °C | ΔTm AurA (AurA): 8.1 °C | ΔTm TTK (TTK): 2.2 °C | ΔTm DRAK1 (DRAK1): 4.8 °C | ΔTm DAPK3 (DAPK3): 5.6 °C | ΔTm TLK1 (TLK1): -0.5 °C | ΔTm MELK (MELK): 4.3 °C | ΔTm FGFR1 (FGFR1): 1.3 °C | ΔTm LOK (LOK): -1.3 °C | ΔTm MRCKa (MRCKa): 0.2 °C | ΔTm BMPR2 (BMPR2): 6.4 °C | ΔTm NEK1 (NEK1): 0.7 °C | ΔTm VRK1 (VRK1): 0.1 °C | ΔTm CAMK1G (CAMK1G): 2.2 °C | ΔTm BIKE (BIKE): 10.2 °C | PPB mouse, single replicate [2]: 23.5% and 3.4% and 7.6% | PPB mouse (%) [2]: 11.5 ± 10.6% | t1/2 human microsomes [3]: >1 h

OCCCn1cc(-c2c(Cl)cnc3[nH]ccc23)nn1
t1/2 mouse plasma [1]: >4 h | ΔTm NEK2 (NEK2): -1.6 °C | ΔTm HIPK2 (HIPK2): 1.3 °C | ΔTm GPRK5 (GPRK5): 1.1 °C | ΔTm AAK1 (AAK1): 6.0 °C | ΔTm MAPK15 (MAPK15): 4.0 °C | ΔTm CAMK2B (CAMK2B): 0.4 °C | ΔTm CK2a1 (CK2a1): 1.4 °C | ΔTm CASK (CASK): 0.2 °C | ΔTm CDKL1 (CDKL1): 0.3 °C | ΔTm MARK3 (MARK3): 2.4 °C | ΔTm AURKB (AURKB): 6.1 °C | ΔTm ABL1 (ABL1): 1.5 °C | ΔTm DYRK1A (DYRK1A): 1.7 °C | ΔTm SRPK1 (SRPK1): -0.2 °C | ΔTm CDK2 (CDK2): 0.9 °C | ΔTm RSK1_b (RSK1_b): 1.2 °C | ΔTm PIM1 (PIM1): 0.9 °C | ΔTm WNK1 (WNK1): -0.2 °C | ΔTm CSNK1E (CSNK1E): 3.4 °C | ΔTm CAMK1D (CAMK1D): 1.4 °C | ΔTm SRC (SRC): -0.1 °C | ΔTm ULK3 (ULK3): 6.1 °C | ΔTm PIM3 (PIM3): 1.1 °C | ΔTm DYRK2 (DYRK2): 3.1 °C | ΔTm CLK1 (CLK1): 4.1 °C | ΔTm EPHB1 (EPHB1): 0.3 °C | ΔTm AurA (AurA): 7.4 °C | ΔTm TTK (TTK): 1.6 °C | ΔTm DRAK1 (DRAK1): 4.9 °C | ΔTm DAPK3 (DAPK3): 4.7 °C | ΔTm TLK1 (TLK1): -0.9 °C | ΔTm MELK (MELK): 4.1 °C | ΔTm FGFR1 (FGFR1): 1.1 °C | ΔTm LOK (LOK): -1.3 °C | ΔTm MRCKa (MRCKa): 0.2 °C | ΔTm BMPR2 (BMPR2): 5.6 °C | ΔTm NEK1 (NEK1): 1.0 °C | ΔTm VRK1 (VRK1): 0.1 °C | ΔTm CAMK1G (CAMK1G): 1.7 °C | ΔTm BIKE (BIKE): 10.2 °C | PPB mouse, single replicate [2]: 60.6% and 68.8% and 56.7% | PPB mouse (%) [2]: 62.0 ± 6.2% | t1/2 human microsomes [3]: >1 h

Where “and” joins values, the source holds several entries; their conditions need not be identical. Equal entries are not always repeated.
